Source: ChEMBL document CHEMBL1128729, “Alpha- and beta-adrenoceptors: from the gene to the clinic. 2. Structure-activity relationships and therapeutic applications” (J Med Chem, 1995)

The chains behind the UniProt entries cited, without tags or fusion partners.
UniProt P22002, whole entry: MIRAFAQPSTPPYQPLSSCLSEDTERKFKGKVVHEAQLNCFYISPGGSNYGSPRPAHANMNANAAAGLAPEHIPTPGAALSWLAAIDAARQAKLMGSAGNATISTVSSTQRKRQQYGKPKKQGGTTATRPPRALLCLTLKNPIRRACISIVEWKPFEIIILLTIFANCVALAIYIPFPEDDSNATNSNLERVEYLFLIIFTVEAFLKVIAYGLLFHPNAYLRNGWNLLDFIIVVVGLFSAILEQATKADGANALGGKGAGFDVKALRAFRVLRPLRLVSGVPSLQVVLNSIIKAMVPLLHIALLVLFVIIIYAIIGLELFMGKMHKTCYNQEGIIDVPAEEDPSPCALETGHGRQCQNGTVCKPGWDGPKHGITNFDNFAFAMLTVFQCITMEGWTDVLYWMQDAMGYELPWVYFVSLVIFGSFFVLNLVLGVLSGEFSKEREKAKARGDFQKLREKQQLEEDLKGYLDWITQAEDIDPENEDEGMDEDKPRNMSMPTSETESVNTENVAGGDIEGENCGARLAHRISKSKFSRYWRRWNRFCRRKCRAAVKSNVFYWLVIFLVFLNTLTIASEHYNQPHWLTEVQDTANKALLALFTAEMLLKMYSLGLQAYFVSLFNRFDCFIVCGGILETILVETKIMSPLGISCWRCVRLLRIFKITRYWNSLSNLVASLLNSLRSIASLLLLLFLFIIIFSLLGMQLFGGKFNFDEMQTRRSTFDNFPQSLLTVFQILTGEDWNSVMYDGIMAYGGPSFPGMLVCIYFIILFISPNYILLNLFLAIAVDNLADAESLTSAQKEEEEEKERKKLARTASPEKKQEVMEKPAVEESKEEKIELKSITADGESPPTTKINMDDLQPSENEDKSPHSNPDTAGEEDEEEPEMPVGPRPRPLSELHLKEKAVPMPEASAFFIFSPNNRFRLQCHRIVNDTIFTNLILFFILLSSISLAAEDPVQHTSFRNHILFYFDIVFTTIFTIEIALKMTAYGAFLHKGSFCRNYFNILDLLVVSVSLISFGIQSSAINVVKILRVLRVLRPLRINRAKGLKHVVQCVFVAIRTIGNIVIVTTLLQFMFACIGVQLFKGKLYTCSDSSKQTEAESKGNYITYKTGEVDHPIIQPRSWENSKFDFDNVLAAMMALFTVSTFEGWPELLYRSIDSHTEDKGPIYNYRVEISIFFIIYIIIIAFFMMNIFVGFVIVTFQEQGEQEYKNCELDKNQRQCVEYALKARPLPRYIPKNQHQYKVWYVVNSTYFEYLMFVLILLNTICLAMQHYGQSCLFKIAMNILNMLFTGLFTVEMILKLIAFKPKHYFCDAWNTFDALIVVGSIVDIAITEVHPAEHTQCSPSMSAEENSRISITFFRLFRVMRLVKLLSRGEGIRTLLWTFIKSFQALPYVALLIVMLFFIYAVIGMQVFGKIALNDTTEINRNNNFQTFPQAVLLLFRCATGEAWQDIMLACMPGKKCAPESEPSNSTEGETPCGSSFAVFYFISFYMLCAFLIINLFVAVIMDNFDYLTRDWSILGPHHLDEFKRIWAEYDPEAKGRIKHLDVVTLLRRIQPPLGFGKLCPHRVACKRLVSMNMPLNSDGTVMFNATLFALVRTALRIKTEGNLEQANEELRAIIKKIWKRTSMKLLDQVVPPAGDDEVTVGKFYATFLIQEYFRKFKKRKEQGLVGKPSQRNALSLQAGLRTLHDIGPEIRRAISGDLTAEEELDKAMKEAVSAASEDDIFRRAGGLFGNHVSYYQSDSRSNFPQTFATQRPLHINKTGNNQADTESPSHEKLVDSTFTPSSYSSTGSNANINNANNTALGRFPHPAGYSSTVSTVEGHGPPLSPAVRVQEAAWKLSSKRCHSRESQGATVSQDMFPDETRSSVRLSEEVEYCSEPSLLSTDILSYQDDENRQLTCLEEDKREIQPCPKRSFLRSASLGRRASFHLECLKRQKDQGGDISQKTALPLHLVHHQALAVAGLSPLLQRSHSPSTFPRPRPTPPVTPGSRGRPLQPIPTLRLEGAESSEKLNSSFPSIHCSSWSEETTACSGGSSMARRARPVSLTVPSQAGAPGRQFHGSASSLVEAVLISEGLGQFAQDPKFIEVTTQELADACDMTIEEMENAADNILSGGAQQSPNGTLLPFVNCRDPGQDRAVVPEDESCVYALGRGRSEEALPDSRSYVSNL

Target: Voltage-dependent L-type calcium channel subunit alpha-1C (Rattus norvegicus, UniProt P22002)
Assay: biochemical

Ki: 9 nM
SMILES: COC(=O)C1=C(C)NC(C)=C(C(=O)OCCCN2CCC(c3ccccc3)(c3ccccc3)CC2)[C@H]1c1cccc([N+](=O)[O-])c1 [NIGULDIPINE]
